# Laboratory results taken from ChEMBL document CHEMBL1156871, “Nonpeptidic tetrafluorophenoxymethyl ketone cruzain inhibitors as promising new leads for Chagas disease chemotherapy” (J Med Chem, 2010).
# Amino acid sequences for entries named in this document (tags omitted). A change or cut given only in a name is not applied to a line headed by its entry.
# UniProt P25779: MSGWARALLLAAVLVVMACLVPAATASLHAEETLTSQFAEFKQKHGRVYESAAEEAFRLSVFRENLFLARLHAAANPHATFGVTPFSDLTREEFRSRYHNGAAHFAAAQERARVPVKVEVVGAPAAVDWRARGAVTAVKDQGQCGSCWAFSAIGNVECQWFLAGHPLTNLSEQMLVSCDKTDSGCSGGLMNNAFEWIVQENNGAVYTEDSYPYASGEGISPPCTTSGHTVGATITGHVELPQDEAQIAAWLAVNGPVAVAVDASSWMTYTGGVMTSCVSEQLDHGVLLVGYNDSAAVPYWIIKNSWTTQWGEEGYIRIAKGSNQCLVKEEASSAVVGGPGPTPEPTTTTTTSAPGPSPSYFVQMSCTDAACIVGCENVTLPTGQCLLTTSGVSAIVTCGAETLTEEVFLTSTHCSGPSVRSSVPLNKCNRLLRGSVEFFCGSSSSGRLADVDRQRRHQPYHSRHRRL
# Target: Cruzipain (Trypanosoma cruzi) (UniProt P25779)
# Assay: Inhibition of Trypanosoma cruzi cruzain
structure (smiles),measurement,value
CCCCC(C(=O)COc1c(F)c(F)cc(F)c1F)n1cc([C@@](C)(NCc2ccc3ncccc3c2)C2CCCC2)nn1 (stereo partly specified),Kinact,0.025 s⁻¹
